The text below walks through data of US6054441A, “Oxypurine nucleosides and their congeners, and acyl derivatives thereof, for improvement of hematopoiesis” (priority 1995, dated 2000).

The test system of the test is Interleukin-3 dependent bone marrow cells. The note with it: PdG and dG 10 micrograms per milliliter, without IL-3.

“And” between values parts separate entries of the source, which are not always exact repeats. Identical values can stand only once. Like-named read-outs stand apart in the source and are kept apart here.

B1: IL-3: recombinant IL-3 (protein, UniProt P08700 20-152, looked up)
Interleukin-3: APMTQTTPLKTSWVNCSNMIDEIITHLKQPPLPLLDFNNLNGEDQDILMENNLRRPNLEAFNRAVKSLQNASAIESILKNLLPCLPLATAAPTRHPIHIKDGDWNEFRRKLTFYLKTLENAQAQQTTLSLAIF
Regarding B1, the “% Dead Cells” value is 7.5% and 7.5 ± 12.5% (24 hr); 6.5 ± 1.5% (40 hr); 10.3 ± 1.9% (60 hr); 13.0% and 13.0 ± 4.0% (84 hr).
